# In patent publication US6534491B2, “Preparation and use of ortho-sulfonamido bicyclic heteroaryl hydroxamic acids as matrix metalloproteinase and tace inhibitors” (priority 1996, dated 2003):
# Target: MMP-13 (Homo sapiens, UniProt P45452)
# Assay: MMP-13 inhibition (thiopeptide or fluorescent peptide substrate)
# Format: biochemical
# Conditions: read-out: MMP-13 IC50
substance,measurement,value
"4-{[4-(4-Chlorophenyloxy)benzenesulfonyl]methylamino}-1,3-dimethyl-1H-pyrazolo[3,4-b]pyridine-5-carboxylic Acid, Hydroxyamide [Example 89]",pIC50,8.96

# pIC50: −log10 of the molar value.
